Measurements reported in PubChem BioAssay AID847 (SRMLSC, 2007).
The entries are a selection whose mix differs from that of the whole data set. Active and inactive are the calls of the source.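 Rule for the calls: active = viability at or below the median of all test compounds minus 3 SD, in both replicates if run twice (cut at about 45% in these data); inconclusive = duplicate replicates that disagree with each other; inactive = viability above that cutoff in every replicate.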

Experiment: viability loss of SK-BR-3 cells – cell-based, human, 24 h, primary screen (AID 847);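 note: 100% = median untreated cell wells and 0% = median positive control drug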
Settings: SK-BR-3 viability, CellTiter-Glo ATP luminescence, at 10 µM, active compounds read low
In the case of `Cc1nc2ccc3ccccc3c2s1.O=[N+]([O-])c1cc([N+](=O)[O-])c(O)c([N+](=O)[O-])c1`, the viability is reported as inactive: 86.2%.
For `Cc1ccc(C)c(NP(C)(=O)Oc2ccccc2)c1` (centres undefined), the viability was inactive: 92.4%.
With `Cc1ccc(NP(C)(=O)Oc2ccccc2)c(C)c1` (centres undefined) the viability was inactive: 88.3%.
In the case of `COc1ccccc1OP(C)(=O)Nc1ccc(C)cc1` (centres undefined), the viability is reported as inactive: 61.1%.
With `CP(=S)(Nn1cnnc1)Oc1ccccc1` (centres undefined) the viability was inactive: 107%.
In the case of `CP(=O)(NC(=O)Nc1ccccc1)Oc1ccccc1` (centres undefined), the viability is reported as inactive: 88.7%.
In the case of `CP(=O)(Oc1ccccc1)N1CCOC1=O` (centres undefined), the viability is reported as inactive: 113%.
In the case of `COc1ccccc1OP(C)(=O)Nc1c(C)n(C)n(-c2ccccc2)c1=O` (centres undefined), the viability is reported as inactive: 51.2%.
With `CCN(CC)CC(O)COC(=O)C(O)(c1ccccc1)C1CCCCC1` (centres undefined) the viability was inactive: 80.5%.
In the case of `COc1ccccc1OP(C)(=O)Nc1ccc(C)c(C)c1` (centres undefined), the viability is reported as inactive: 92.5%.
With `CN(C)CCOC(=O)C(O)(c1ccccc1)C1CCCCC1` (centres undefined) the viability was inactive: 102%.
For `CCOP(C)(=S)SCC(=O)NC(C)(CC)C(=O)O` (centres undefined), the viability was inactive: 105%.
With `Cc1ccccc1NP(C)(=O)Nc1ccccc1C` the viability was inactive: 88.3%.
With `CP(=O)(Nc1ccc2c(c1)OCCO2)Oc1ccccc1` (centres undefined) the viability was inactive: 57.4%.
